Laboratory results reported in publication PMC8245553, “Identification of natural product modulators of Merkel cell carcinoma cell growth and survival” (Scientific Reports, 2021).
Read-outs that look alike come from different tables or passages of the source.

Tests used:
[1] = test system: HaCaT immortalized keratinocytes; assay: cells; conditions: Homo sapiens, 72 h, read-out: IC50 (95% CI)
MCC13 (VN-MCC) cells [2] = assay: cells; conditions: Homo sapiens, 72 h, read-out: IC50 (95% CI)
MCC26 (VN-MCC) cells [3] = assay: cells; conditions: Homo sapiens, 72 h, read-out: IC50 (95% CI)
WaGa (VP-MCC) cells = assay: Differential growth inhibition/cytotoxicity assay (CellTiterGlo), WaGa; conditions: read-out: IC50 (95% CI)
MKL-2 (VP-MCC) cells = assay: Differential growth inhibition/cytotoxicity assay (CellTiterGlo), MKL-2; conditions: read-out: IC50 (95% CI)
MKL-1 (VP-MCC) cells = assay: Differential growth inhibition/cytotoxicity assay (CellTiterGlo/XTT), MKL-1; conditions: read-out: IC50 (95% CI)
UISO (VN-MCC) cells [4] = assay: cells; conditions: Homo sapiens, 72 h, read-out: IC50 (95% CI)
[5] = test system: HaCaT immortalized keratinocytes; conditions: read-out: IC50 (95% CI)
MCC13 (VN-MCC) cells [6] = conditions: read-out: IC50 (95% CI)
MCC26 (VN-MCC) cells [7] = conditions: read-out: IC50 (95% CI)
UISO (VN-MCC) cells [8] = test system: UISO (VN-MCC) cells

Row | IC50 (MCC13 (VN-MCC) cells [2]) | IC50 (MCC26 (VN-MCC) cells [3]) | IC50 (UISO (VN-MCC) cells [8]) | Compound | IC50 [1] | IC50 (WaGa (VP-MCC) cells; Homo sapiens, 72 h) | IC50 (MKL-2 (VP-MCC) cells; Homo sapiens, 72 h) | IC50 (MKL-1 (VP-MCC) cells; Homo sapiens, MKL-1, 72 h) | IC50 (UISO (VN-MCC) cells [4]) | IC50 [5] | IC50 (MCC13 (VN-MCC) cells [6]) | IC50 (MCC26 (VN-MCC) cells [7]) | IC50 (UISO (VN-MCC) cells [8]; read-out: IC50 (95% CI)) | IC50 (WaGa (VP-MCC) cells) | IC50 (MKL-2 (VP-MCC) cells) | IC50 (MKL-1 (VP-MCC) cells)
1 | 510 nM | 1400 nM | – | COc1c(C)c2c(c(O)c1C/C=C(\C)CCC(=O)O)C(=O)OC2 [mycophenolic acid] | ~5000 nM | 700 nM | 330 nM | 820 nM | – | – | – | – | – | – | – | –
2 | – | – | – | Furoxanobenzofuroxan | – | – | – | – | – | > 10000 nM | > 10000 nM | 1700 nM | 6910 nM | 350 nM | 160 nM | 150 nM
3 | – | ~10000 nM | ~10000 nM | COc1cc([C@@H]2c3cc4c(cc3[C@@H](O[C@@H]3O[C@@H]5CO[C@@H](C)O[C@H]5[C@H](O)[C@H]3O)[C@H]3COC(=O)[C@H]23)OCO4)cc(OC)c1O [Etoposide] | ~10000 nM | – | – | – | – | – | – | – | – | – | – | –
4 | 1400 nM | 1970 nM | – | O=Nc1ccc(O)c2ncccc12 [5-Nitroso-8-hydroxyquinoline] | > 10000 nM | 70 nM | 30 nM | 80 nM | – | – | – | – | – | – | – | –
5 | – | – | – | Cc1c(O)c(O)c2c(c1O)C(=O)C(Cl)=C(Cl)C2=O [NSC369976] | – | – | – | – | – | > 10000 nM | ~10000 nM | > 10000 nM | ~5000 nM | 710 nM | 1070 nM | 1150 nM
6 | – | – | – | Oc1ccc(/C=N/NC(=S)Nc2cccnc2)nc1 [NSC185065] | – | – | – | – | – | > 10000 nM | 3730 nM | 3400 nM | 2240 nM | 2840 nM | 2540 nM | 2970 nM
7 | > 10000 nM | > 10000 nM | – | O=C(N[C@H](COC(=O)[C@H](Cc1ccccc1)NC(=O)c1ccccc1)Cc1ccccc1)c1ccccc1 [asperphenamate] | > 10000 nM | ~5000 nM | 3410 nM | ~10000 nM | – | – | – | – | – | – | – | –
8 | 56.9 nM | ~10000 nM | 227 nM | Nc1nc(Cl)nc2c1ncn2[C@H]1C[C@H](O)[C@@H](CO)O1 [Cladribine] | 1020 nM | 838 nM | 290 nM | 157 nM | – | – | – | – | – | – | – | –
9 | 184 nM | 803 nM | 1060 nM | Nc1nc(Cl)nc2c1ncn2[C@@H]1O[C@H](CO)[C@@H](O)[C@@H]1F [Clofarabine] | 1120 nM | 164 nM | 282 nM | 101 nM | – | – | – | – | – | – | – | –
10 | ~300 nM | ~200 nM | – | S=C(S)N1CCCC1 [Pyrrolidinedithiocarbamate] | > 10000 nM | 170 nM | 230 nM | 170 nM | – | – | – | – | – | – | – | –
11 | < 20 nM | ~40 nM | – | CCOC(C)C(C=NNC(N)=S)=NNC(N)=S (stereo not shown) [Gloxazone, 3-ethoxy-2-oxobutyraldehyde bis(thiosemicarbazone)] | 220 nM | ~30 nM | 30 nM | ~20 nM | – | – | – | – | – | – | – | –
12 | 1760 nM | > 10000 nM | – | C[n+]1ccc2c(c1)c(O)c1c3c(c4cc(Br)ccc4nc32)C(=O)C[N+]1(C)C [petrosamine B] | > 10000 nM | 3400 nM | > 10000 nM | 530 nM | – | – | – | – | – | – | – | –
13 | 51 nM | 72 nM | – | Cc1[nH]c2ccccc2c1CCNCc1ccc(/C=C/C(=O)NO)cc1 [Panobinostat] | – | – | 3.4 nM | 32 nM | – | – | – | – | – | – | – | –
14 | 140 nM | 290 nM | – | CCN(CC)C(=S)SSC(=S)N(CC)CC [Disulfiram] | > 10000 nM | 70 nM | 100 nM | < 10 nM | – | – | – | – | – | – | – | –

Row | Compound | IC50 (MCC13 (VN-MCC) cells [2]) | IC50 (MCC26 (VN-MCC) cells [3]) | IC50 (UISO (VN-MCC) cells [8]) | IC50 [1] | IC50 (WaGa (VP-MCC) cells; Homo sapiens, 72 h) | IC50 (MKL-2 (VP-MCC) cells; Homo sapiens, 72 h) | IC50 (MKL-1 (VP-MCC) cells; Homo sapiens, MKL-1, 72 h) | IC50 (UISO (VN-MCC) cells [4]) | IC50 [5] | IC50 (MCC13 (VN-MCC) cells [6]) | IC50 (MCC26 (VN-MCC) cells [7]) | IC50 (UISO (VN-MCC) cells [8]; read-out: IC50 (95% CI)) | IC50 (WaGa (VP-MCC) cells) | IC50 (MKL-2 (VP-MCC) cells) | IC50 (MKL-1 (VP-MCC) cells)
15 | C/C=C(/C)C(=O)O[C@H]1C(C)=C2[C@H]([C@@H]1OC(=O)CCCCCCC)[C@@](C)(OC(C)=O)C[C@H](OC(=O)CCC)[C@@]1(O)[C@H]2OC(=O)[C@@]1(C)O [Thapsigargin] | 970 nM | 1110 nM | – | 1070 nM | 1020 nM | 1140 nM | > 10000 nM | – | – | – | – | – | – | – | –
16 | C[C@@H]1C[C@H](C)C[C@H](C)[C@@H](O)CC(=O)O[C@H]([C@@H]2CCC[C@H]2C(=O)O)C/C=C/C=C(/C#N)[C@H](O)[C@@H](C)C1 [Borrelidin] | 5.8 nM | 12.9 nM | – | 72 nM | – | – | – | 5 nM | – | – | – | – | – | – | –
17 | CC1=CC(=O)c2c(O)cccc2C1=O [Plumbagin] | ~5000 nM | ~10000 nM | – | > 10000 nM | 550 nM | 730 nM | 1060 nM | – | – | – | – | – | – | – | –
18 | CO[C@@]12[C@H](COC(N)=O)C3=C(C(=O)C(C)=C(N)C3=O)N1C[C@@H]1N[C@@H]12 [Mitomycin C, reference compound] | – | – | 800 nM | 1020 nM | 360 nM | 70 nM | 240 nM | – | – | – | – | – | – | – | –
19 | O=C1C2=C3C4=[N+](CCc5c[nH]c1c54)[C@H]1C[C@@]34C[C@@H](N2)SC4=CC1=O [Discorhabdin D] | 2670 nM | – | – | 6170 nM | 970 nM | 1490 nM | 460 nM | 2070 nM | – | – | – | – | – | – | –
20 | CC[C@](C)(O)C(=O)O[C@H]1C(=O)O[C@@H]2C[C@H]3C(C)=C[C@H](O)[C@@H](O)[C@]3(C)[C@H]3[C@]4(O)OC[C@]32[C@@H]1[C@@H](C)[C@H]4O [Glaucarubin] | ~10000 nM | > 10000 nM | – | > 10000 nM | 1560 nM | 3060 nM | 490 nM | ~6000 nM | – | – | – | – | – | – | –
